Laboratory results reported in patent US20150352040A1 (priority 2010, published 2015).

Conditions: in comparison to a 15 mg dose of hydrocodone

CN1CC[C@]23c4c5ccc(O)c4O[C@H]2C(=O)CC[C@H]3[C@H]1C5 [Hydromorphone]
Calculated Dose (mg), equianalgesic: 3.375 mg
